Earlier results on one compound are cited in article PMC7280195, “Simple ammonium salts acting on sigma-1 receptors yield potential treatments for cancer and depression” (Scientific Reports, 2020).

This data set deals with sigma-1 receptors. The note with it: MDA-MB-468 cells; cited from earlier work.

Turning to `CC(C)=CCN1CC[C@]2(C)c3cc(O)ccc3C[C@H]1[C@H]2C` [[^3H] (+) pentazocine, (1 S,9 S,13 S)-1,13-dimethyl-10-(3-methylbut-2-en-1-yl)-10-azatricyclotrideca-2,4,6-trien-4-ol], the Kd (as a rule, a measure of binding affinity in units of concentration) was 17 nM and the “pKd ± SEM” value is 7.8 ± 0.6.
